Measurements from US20070149508A1, “Six membered heteroaromatic inhibitors targeting resistant kinase mutations” (TargeGen, Inc., priority 2005, published 2007).

Sequences of proteins named here, by UniProt entry; tags and fusion partners are left off. A change or cut given only in a name is not applied to a line headed by its entry.
UniProt P00519, whole entry: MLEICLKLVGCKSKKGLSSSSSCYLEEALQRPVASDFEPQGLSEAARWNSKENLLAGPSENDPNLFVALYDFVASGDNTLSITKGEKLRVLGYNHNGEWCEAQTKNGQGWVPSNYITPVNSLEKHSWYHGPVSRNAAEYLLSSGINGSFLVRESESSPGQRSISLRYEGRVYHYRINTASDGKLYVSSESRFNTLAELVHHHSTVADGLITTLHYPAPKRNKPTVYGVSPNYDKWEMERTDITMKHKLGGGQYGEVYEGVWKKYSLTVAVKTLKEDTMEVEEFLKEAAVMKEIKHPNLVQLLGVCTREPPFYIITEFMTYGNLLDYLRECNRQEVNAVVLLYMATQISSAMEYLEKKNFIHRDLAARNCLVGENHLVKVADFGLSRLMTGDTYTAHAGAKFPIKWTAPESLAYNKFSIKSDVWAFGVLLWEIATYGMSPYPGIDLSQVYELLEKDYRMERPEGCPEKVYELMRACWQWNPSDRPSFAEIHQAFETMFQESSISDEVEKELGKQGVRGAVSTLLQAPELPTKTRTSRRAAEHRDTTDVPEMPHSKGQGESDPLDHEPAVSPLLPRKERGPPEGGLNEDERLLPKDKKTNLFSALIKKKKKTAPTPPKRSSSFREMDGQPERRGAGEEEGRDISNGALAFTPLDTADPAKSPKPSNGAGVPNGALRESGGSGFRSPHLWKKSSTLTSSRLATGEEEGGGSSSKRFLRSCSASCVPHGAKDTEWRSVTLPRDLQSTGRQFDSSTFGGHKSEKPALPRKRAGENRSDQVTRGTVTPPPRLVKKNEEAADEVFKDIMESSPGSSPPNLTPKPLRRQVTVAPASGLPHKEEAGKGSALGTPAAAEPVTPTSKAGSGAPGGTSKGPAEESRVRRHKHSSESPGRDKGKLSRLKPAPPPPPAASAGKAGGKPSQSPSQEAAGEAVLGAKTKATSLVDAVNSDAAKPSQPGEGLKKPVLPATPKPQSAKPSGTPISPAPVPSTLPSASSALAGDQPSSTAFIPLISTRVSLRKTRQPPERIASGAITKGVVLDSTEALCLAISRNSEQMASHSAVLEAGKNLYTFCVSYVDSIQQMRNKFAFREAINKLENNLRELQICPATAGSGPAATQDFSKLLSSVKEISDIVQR
UniProt P00519, whole entry T315I: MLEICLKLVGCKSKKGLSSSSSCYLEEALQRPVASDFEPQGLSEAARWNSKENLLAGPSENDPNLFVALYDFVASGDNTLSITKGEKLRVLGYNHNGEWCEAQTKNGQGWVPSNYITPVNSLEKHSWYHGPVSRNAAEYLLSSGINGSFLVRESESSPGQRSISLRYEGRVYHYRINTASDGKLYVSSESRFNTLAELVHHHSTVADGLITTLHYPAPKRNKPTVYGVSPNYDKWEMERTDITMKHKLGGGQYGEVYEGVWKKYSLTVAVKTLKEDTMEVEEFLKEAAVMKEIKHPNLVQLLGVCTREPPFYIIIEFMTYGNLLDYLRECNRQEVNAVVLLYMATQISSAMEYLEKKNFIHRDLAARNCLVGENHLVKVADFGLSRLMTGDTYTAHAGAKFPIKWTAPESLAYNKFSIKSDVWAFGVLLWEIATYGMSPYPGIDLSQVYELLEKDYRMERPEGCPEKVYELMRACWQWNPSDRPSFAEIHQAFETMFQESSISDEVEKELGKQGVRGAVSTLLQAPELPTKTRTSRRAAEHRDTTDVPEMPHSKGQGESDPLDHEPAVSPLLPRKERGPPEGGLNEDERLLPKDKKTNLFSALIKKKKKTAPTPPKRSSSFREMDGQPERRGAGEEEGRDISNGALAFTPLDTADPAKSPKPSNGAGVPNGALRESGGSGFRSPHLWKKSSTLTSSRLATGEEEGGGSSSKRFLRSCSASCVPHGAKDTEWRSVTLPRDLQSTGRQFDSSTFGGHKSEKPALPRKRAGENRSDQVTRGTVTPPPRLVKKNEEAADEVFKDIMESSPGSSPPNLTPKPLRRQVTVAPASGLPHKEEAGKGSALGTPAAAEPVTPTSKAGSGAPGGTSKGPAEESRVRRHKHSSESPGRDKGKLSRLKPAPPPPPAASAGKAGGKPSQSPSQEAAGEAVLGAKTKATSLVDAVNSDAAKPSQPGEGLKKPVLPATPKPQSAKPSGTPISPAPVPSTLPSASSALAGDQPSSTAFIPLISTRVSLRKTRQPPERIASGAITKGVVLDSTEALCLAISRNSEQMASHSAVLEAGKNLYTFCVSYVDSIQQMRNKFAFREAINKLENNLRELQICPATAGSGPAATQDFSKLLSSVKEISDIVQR

What was measured:
Abl (T315I) = Abl (T315I) (Homo sapiens, UniProt P00519, T315I); assay: Abl (T315I) Kinase Assay (KinaseGlo luminescent detection of residual ATP); settings: read-out: Abl (T315I) IC50; Abl (T315I) (Upstate, 17 ng/well), Abltide 100 uM, ATP 500 nM, 60 minutes at 37° C.
Abl kinase = Abl kinase (Homo sapiens, UniProt P00519)

Nc1noc2cc(/C=C/c3cnc(Nc4ccc(S(=O)(=O)C5CCNCC5)cc4)nc3)ccc12
IC50 (Abl (T315I)): 899 nM | IC50 (Abl kinase): 794 nM

Nc1noc2c(/C=C/c3cnc(Nc4ccc(S(=O)(=O)C5CCNCC5)cc4)nc3)cccc12
IC50 (Abl (T315I)): 201 nM | IC50 (Abl kinase): 4.7 nM
